## Ab-14 heavy chain CDR variants: yeast mating affinities

Source: Engelhart et al. 2022 (doi:10.1038/s41597-022-01779-4), MIT Lincoln Laboratory and A-Alpha Bio; data file from the FLAb repository.

Binding partner: SARS-CoV-2 spike HR2 peptide, sequence PDVDLGDISGINAS.

Parent scFv Ab-14: VH joined to VL by the linker GGGGSGGGGSGGGGS. Changes lie in the heavy chain CDRs alone.
VH: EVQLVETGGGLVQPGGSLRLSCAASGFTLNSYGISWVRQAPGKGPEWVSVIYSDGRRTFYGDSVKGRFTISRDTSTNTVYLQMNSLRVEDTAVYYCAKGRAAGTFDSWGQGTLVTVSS
VL: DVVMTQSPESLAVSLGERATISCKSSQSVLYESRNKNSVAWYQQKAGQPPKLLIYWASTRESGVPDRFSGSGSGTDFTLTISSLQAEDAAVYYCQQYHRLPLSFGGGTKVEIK

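The starting antibody came from a phage panning campaign against this peptide. Variants in AAYL49 differ from the parent at up to three CDR positions; double and triple changes were sampled at random. AlphaSeq pools MATa yeast showing the antibodies with MATalpha yeast showing the peptide. Mating (16 h, 30 °C) was followed by selection of diploids and sequencing of their barcodes. Scores were corrected for input abundance and mapped to Kd with protein pairs of known affinity run in the same pool. There are three technical replicates.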

Changes read parent residue, position, new residue, counted from the first residue of the VH shown.
The read-out is the apparent dissociation constant on a log10 scale (nM): the lower, the stronger.
An entry "nd" has no value in the source: the pair was not observed among the diploids in that replicate. This suggests poor binding but is not conclusive.
Empty control strains, which show no peptide, gave a signal in 15% of pairings with library AAYL49; the median was 4.06 and 95% of these signals were weaker than 2.83. No background was subtracted. The control count says in how many pairings with the empty strains this scFv gave a signal, with their mean in brackets.

changes,log10 Kd (nM) by replicate,control signals
G33L+K65F+T104V,3.41 / 4.07 / nd,1/9 (3.70)
S63I+K65G+R100F,nd / nd / nd,0/9
G61V+K65L+A101M,2.13 / 2.24 / 3.54,0/9
T28F+S35L+A102I,nd / 5.82 / nd,6/9 (4.55)
G33N+R100G,5.21 / 4.99 / nd,4/9 (4.20)
S35W+V64L+T104P,nd / nd / nd,1/9 (2.49)
Y52K+T104M+F105V,nd / nd / nd,0/9
S63D+T104Y+S107R,3.22 / nd / 3.44,1/9 (2.94)
S31Y+G99L+D106P,nd / nd / nd,3/9 (3.17)
S53I+G55I+Y60K,4.59 / nd / nd,1/9 (3.22)
I51C+S53Y+G55F,nd / nd / nd,1/9 (3.17)
G26S+V64F+G103I,nd / nd / nd,0/9
I34E+Y52R+A102N,nd / nd / 3.60,2/9 (4.01)
G26N+G33R+D54S,nd / 4.75 / nd,5/9 (4.94)
L29E+N30E+A102L,nd / nd / nd,0/9
R56H+T104R+S107T,3.85 / nd / nd,1/9 (5.33)
N30R+R100L+F105G,1.59 / 1.60 / 1.56,2/9 (3.53)
G26Y+V64P+T104G,4.21 / nd / nd,0/9
N30R+S53L+F59R,6.01 / 5.19 / nd,5/9 (4.12)
S35A+G99C+S107H,nd / nd / nd,2/9 (2.49)
G26Q+T104G+F105K,1.91 / 1.66 / 1.74,1/9 (5.02)
S31A+G55D+G61Q,nd / nd / 3.69,2/9 (3.98)
I51M+D54R+K65I,nd / nd / nd,0/9
R56F+R100G+F105N,nd / nd / nd,1/9 (4.33)
G33Q+D54G+G61H,nd / 3.29 / nd,3/9 (3.73)
S35I+F105W,nd / 4.24 / nd,2/9 (4.10)
F27E+F59T+T104S,3.24 / 3.69 / 2.90,4/9 (4.26)
Y32K+Y60N+D106T,nd / nd / nd,0/9
G26R+T28P+V64G,nd / nd / nd,1/9 (2.81)
G61W+K65N+D106N,nd / nd / nd,1/9 (2.93)
S35F+F59Y+G99A,nd / nd / nd,0/9
G55E+F105H+D106P,nd / 3.01 / nd,1/9 (4.42)
G26L+S53P+F59P,nd / nd / nd,1/9 (4.35)
R56E+R57H+S63G,2.89 / 2.87 / 3.21,5/9 (3.52)
G55D+T58L+S63T,5.30 / nd / nd,6/9 (4.95)
L29K+K65M+F105A,3.70 / 3.20 / nd,1/9 (3.59)
V50R+Y52G+R57G,nd / nd / nd,0/9
R56C+A102Q,2.25 / 2.22 / 3.18,3/9 (3.04)
I51E+D54A+G55K,nd / nd / nd,0/9
T28A+S35M+R56N,nd / nd / nd,1/9 (3.64)
F27D+T28G,2.47 / 2.34 / 2.65,2/9 (4.85)
Y52K+Y60R+A102V,nd / nd / nd,0/9
T28E+V50L,3.13 / 2.72 / 3.20,2/9 (3.30)
G26R+R56P,nd / nd / nd,3/9 (4.82)
S31W+R56T+G103I,2.29 / 1.77 / 2.48,5/9 (4.26)
S31Q,nd / nd / nd,1/9 (3.47)
Y52T+A101F,nd / nd / nd,0/9
S31G+Y60K+S107R,nd / nd / nd,0/9

A selection of 5 entries from above:

changes,log10 Kd (nM) by replicate,control signals
G26S+V64F+G103I,nd / nd / nd,0/9
S31A+G55D+G61Q,nd / nd / 3.69,2/9 (3.98)
I51M+D54R+K65I,nd / nd / nd,0/9
N30R+S53L+F59R,6.01 / 5.19 / nd,5/9 (4.12)
G26N+G33R+D54S,nd / 4.75 / nd,5/9 (4.94)